The structures appear in SMILES notation.

A word on the Ki: it is the equilibrium dissociation constant of an inhibitor or competing ligand from its target.

The test addresses T1, human recombinant DHFR (Homo sapiens, UniProt P00374).
T1 sequence (P00374 1-187): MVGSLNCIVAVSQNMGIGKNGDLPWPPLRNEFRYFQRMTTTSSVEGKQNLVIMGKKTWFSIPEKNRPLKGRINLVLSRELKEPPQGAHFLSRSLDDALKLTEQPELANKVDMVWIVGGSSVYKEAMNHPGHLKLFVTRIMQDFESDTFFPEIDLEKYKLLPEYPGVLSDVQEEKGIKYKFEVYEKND
As to the kind of experiment: DHFR inhibition in a cell-free assay. The test is classed as biochemical.

As for `Nc1nc2[nH]cc(CCc3ccc(C(=O)N[C@@H](CCC(=O)O)C(=O)O)cc3)c2c(=O)[nH]1` [Alimta, pemetrexed], the Ki is more than 200 nM.

The values are drawn from US9901578B2, “Combination of 10-propargyl-10-deazaaminopterin and erlotinib for the treatment of non-small cell lung cancer” (Allos Therapeutics, Inc., priority 2007, dated 2018).
